Antibody variant affinities, Ab-14 light chain, assay B

Binding partner: SARS-CoV-2 spike HR2 peptide, sequence PDVDLGDISGINAS.

Parent: Ab-14, a human scFv built as VH, a 15-residue (Gly4Ser)3 linker, VL. Only the CDRs of the light chain vary.
VH: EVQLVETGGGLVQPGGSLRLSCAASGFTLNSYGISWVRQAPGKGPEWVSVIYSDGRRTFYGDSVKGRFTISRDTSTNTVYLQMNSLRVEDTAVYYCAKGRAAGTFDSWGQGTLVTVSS
VL: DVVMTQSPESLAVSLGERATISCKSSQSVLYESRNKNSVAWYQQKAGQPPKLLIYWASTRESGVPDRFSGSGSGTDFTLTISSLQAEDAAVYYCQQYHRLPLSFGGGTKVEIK

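The parent was found by panning a naive human phage display library on the peptide. These sequences belong to a second round, designed from the earlier measurements on random variants of the parent. Their group label is 14L_GP_Gen (GP: Gaussian process model; Gen: genetic algorithm; a sequence that several methods proposed may carry one label only). Affinity was read by AlphaSeq, a pooled yeast mating assay with surface-displayed partners. Pairs that bind mate more often; barcode pairs of the diploids are counted by sequencing. Read counts were normalised to the haploid input and turned into Kd by a linear fit to BCL2-family pairs of known affinity, for each replicate. Each pool was mated in six replicate cultures.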

Substitutions are numbered in sequence along the VL above, starting at 1 (not Kabat).
Values are log10 of the apparent Kd in nM; lower means stronger binding.
The range of this assay differs from that of the first round, and the authors advise against merging the two.
Empty control strains, which show no peptide, gave a signal in 4% of pairings with all light chain designs; the median was 2.64 and 95% of these signals were weaker than 1.59. No background was subtracted. The control count says in how many pairings with the empty strains this scFv gave a signal.
The parent sequence was in this pool as ten entries: three were never detected, three once, and four in most replicates, with averages from 0.34 to 2.37.
The authors averaged sequences with at least three values out of six and counted those with two or fewer as poor binders.

The variant S25V S33E W56D T59Q showed 0.42, 0.21, 0.14, -0.23, -0.01, 0.45 (controls 0 of 18).
The variant S25L S26Q K36W W56N E61L showed 0.11, -0.12, 0.06, -0.04, -0.21, 0.10 (controls 2 of 18).
The variant S25L V29Q L30E W56N T59Q showed 0.38, -0.11, -0.10, 0.01, 0.32, 0.23 (controls 0 of 18).
The variant S25L L30E W56N E61L showed 0.46, 0.37, 0.25, 0.22, 0.49, 0.46 (controls 3 of 18).
The variant S25L S26Q E32G W56E showed 0.10, 0.17, 0.22, -0.04, 0.34, 0.21 (controls 1 of 18).
The variant S25L V29W L30D W56N E61M showed -0.12, -0.04, -0.17, -0.49, -0.39, -0.25 (controls 0 of 18).
The variant S25L V29E N35M W56N T59Y showed 0.39, 0.11, 0.04, -0.14, 0.14, 0.34 (controls 1 of 18).
The variant S25L Q27G V29Q W56Q showed -0.33, -0.54, -0.45, -0.57, -0.53, -0.45 (controls 0 of 18).
The variant S25L V29N W56E S62V showed -0.18, -0.05, -0.25, -0.23, -0.46, -0.10 (controls 0 of 18).
The variant S25L L30P S33E W56N E61M showed -0.21, -0.31, -0.40, -0.71, -0.53, -0.24 (controls 1 of 18).
The variant S25L N37W W56N S62Q showed 0.02, -0.16, -0.12, -0.34, -0.38, 0.55 (controls 0 of 18).
The variant S25L S26P V29E W56H showed 0.00, 0.07, 0.02, 0.06, -0.01, 0.52 (controls 0 of 18).
The variant S25L L30D S38N W56D showed 0.16, 0.46, 0.34, 0.27, 0.43, 0.62 (controls 0 of 18).
The variant S25L S26E Q27G V29E W56N showed -0.11, -0.19, -0.39, -0.41, -0.39, -0.12 (controls 2 of 18).
The variant S25V V29Y W56N S62V showed 0.39, 0.36, 0.09, 0.34, 0.54, 0.36 (controls 1 of 18).
The variant S25V S26D W56N showed -0.23, -0.37, -0.33, -0.41, -0.50, -0.21 (controls 5 of 18).
The variant S25L S26Q V29M W56N T59Q E61L showed 0.12, -0.06, -0.17, -0.05, 0.04, 0.15 (controls 3 of 18).
The variant S25L S26W V29E W56N E61L showed -0.04, -0.20, -0.50, -0.30, -0.39, -0.31 (controls 0 of 18).
The variant S25L K36F W56D showed -0.16, -0.09, -0.20, -0.33, -0.06, -0.11 (controls 4 of 18).
The variant S25L V29F W56N S62M showed 0.09, 0.08, 0.06, -0.26, -0.08, 0.18 (controls 3 of 18).
The variant S25Q W56N A57G showed 0.81, 0.94, 0.10, 0.41, 0.72, 0.87 (controls 1 of 18).
The variant S25L S26E V29Q N35M W56N showed 0.30, 0.29, 0.16, -0.22, -0.11, 0.21 (controls 1 of 18).
The variant S26Q V29W L30P W56N T59Q showed -0.21, -0.18, -0.36, -0.44, -0.36, -0.11 (controls 1 of 18).
The variant S25L S26P L30G W56N T59Q showed 0.53, 0.25, 0.26, 0.16, 0.19, 0.56 (controls 1 of 18).
The variant S25V V29M L30P W56N T59Q showed -0.08, -0.08, -0.20, -0.27, -0.30, -0.19 (controls 2 of 18).
The variant S25L S26P V29E W56A showed 0.20, 0.13, -0.10, -0.14, -0.02, 0.13 (controls 3 of 18).
The variant S25L S26Y W56D showed 0.16, 0.38, 0.12, 0.03, 0.24, 0.12 (controls 1 of 18).
The variant S25V S26P W56Q showed 0.01, -0.17, -0.21, -0.16, -0.24, -0.10 (controls 1 of 18).
The variant S25L V29W S38A W56N T59Q showed 0.36, 0.51, 0.10, 0.29, 0.24, 0.28 (controls 0 of 18).
The variant S25L N35Q W56N E61S showed -0.15, -0.09, 0.08, -0.11, -0.07, -0.11 (controls 0 of 18).
The variant K24Y S25L S26Q W56N showed -0.26, -0.31, -0.37, -0.48, -0.47, -0.34 (controls 1 of 18).
The variant Q27P V29E W56E showed 0.95, 1.10, 0.63, 0.95, 0.69, 0.90 (controls 0 of 18).
The variant S25L S26Q V29T N35M W56N showed 0.48, 0.48, 0.17, 0.64, 0.58, 0.81 (controls 1 of 18).
The variant S25L S26Q V29E L30P W56E showed 0.50, 0.44, 0.38, 0.20, 0.23, 0.52 (controls 0 of 18).
The variant S25L N35A W56E T59Q showed -0.26, -0.28, -0.58, -0.37, -0.42, -0.22 (controls 2 of 18).
The variant S25V V29N W56N Q96S showed 0.34, 0.12, 0.06, -0.21, -0.04, 0.19 (controls 2 of 18).
The variant S25L S28L V29N W56N showed 0.29, -0.05, -0.34, -0.06, 0.20, 0.20 (controls 1 of 18).
The variant S25L V29M N35M W56N T59Q showed -0.01, -0.26, -0.16, -0.27, -0.16, -0.05 (controls 0 of 18).
The variant S25L Q27F V29M W56N T59Q showed -0.05, -0.33, -0.23, -0.32, -0.24, -0.06 (controls 1 of 18).
The variant S25L S26H W56E showed 0.01, -0.04, -0.20, -0.23, -0.18, -0.06 (controls 0 of 18).
The variant S25L K36S W56N T59Q showed 0.09, 0.23, -0.14, -0.32, -0.08, 0.06 (controls 0 of 18).
The variant S25L Q27E V29N W56N showed -0.06, -0.06, -0.07, -0.24, -0.07, 0.10 (controls 2 of 18).
The variant V29E W56E S62E showed 0.16, 0.41, -0.08, 0.33, 0.21, 0.24 (controls 0 of 18).
The variant S25L S26W L30P W56N showed 0.49, 0.81, 0.64, 0.51, 0.67, 0.93 (controls 0 of 18).
The variant S25L V29E N35Q W56N E61L showed 0.24, 0.05, 0.40, -0.01, 0.15, 0.31 (controls 0 of 18).
The variant S25L S26Q W56N E61L showed 0.24, -0.28, -0.01, -0.08, -0.14, 0.01 (controls 0 of 18).
The variant S25L V29E W56N T59Q E61M showed -0.36, -0.62, -0.56, -0.51, -0.63, -0.55 (controls 0 of 18).

The closing 6 entries, repeated:

The variant S25L Q27E V29N W56N showed -0.06, -0.06, -0.07, -0.24, -0.07, 0.10 (controls 2 of 18).
The variant V29E W56E S62E showed 0.16, 0.41, -0.08, 0.33, 0.21, 0.24 (controls 0 of 18).
The variant S25L S26W L30P W56N showed 0.49, 0.81, 0.64, 0.51, 0.67, 0.93 (controls 0 of 18).
The variant S25L V29E N35Q W56N E61L showed 0.24, 0.05, 0.40, -0.01, 0.15, 0.31 (controls 0 of 18).
The variant S25L S26Q W56N E61L showed 0.24, -0.28, -0.01, -0.08, -0.14, 0.01 (controls 0 of 18).
The variant S25L V29E W56N T59Q E61M showed -0.36, -0.62, -0.56, -0.51, -0.63, -0.55 (controls 0 of 18).

Source: Li et al. 2023 (doi:10.1038/s41467-023-39022-2), MIT Lincoln Laboratory and A-Alpha Bio; data file from the FLAb repository.